AlphaSeq binding of Ab-14 light chain variants to a spike HR2 peptide

From the AlphaSeq antibody data of Li et al. 2023 (doi:10.1038/s41467-023-39022-2), copy in the FLAb collection.

Target: peptide PDVDLGDISGINAS, taken from heptad repeat 2 (HR2) of SARS-CoV-2 spike.

The variants keep the heavy chain, the linker and the frameworks of Ab-14 (scFv order VH, a (GGGGS)3 linker, VL).
VH: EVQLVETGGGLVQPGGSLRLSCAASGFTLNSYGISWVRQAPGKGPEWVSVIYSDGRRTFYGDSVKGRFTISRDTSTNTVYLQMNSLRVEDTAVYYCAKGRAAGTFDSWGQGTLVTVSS
VL: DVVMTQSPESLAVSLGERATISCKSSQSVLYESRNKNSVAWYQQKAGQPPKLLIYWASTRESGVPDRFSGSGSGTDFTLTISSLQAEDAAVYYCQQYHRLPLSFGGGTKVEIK

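The parent was found by panning a naive human phage display library on the peptide. Designed CDR sequences, proposed from the first random library and measured here. Their group label is 14L_GP_Gibbs (GP: Gaussian process model; Gibbs: Gibbs sampling; a sequence that several methods proposed may carry one label only). The assay is AlphaSeq: two haploid yeast populations carry antibody and antigen on their surface. After mating in shaken culture at 30 °C for 16 h, diploids were selected and their barcode pairs sequenced. The ratio of observed to expected reads was calibrated, replicate by replicate, on BCL2-family standards whose Kd was known from biolayer interferometry. Each pool was mated in six replicate cultures.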

The parent's light chain CDRs are KSSQSVLYESRNKNSVA, WASTRES, QQYHRLPLS; each variant's own CDRs replace them letter for letter.
The read-out is the apparent dissociation constant on a log10 scale (nM): the lower, the stronger.
"nd" marks a missing value. The strain was present, yet no cells mated with the target were sequenced in that replicate, which points to weak or no binding.
The authors averaged sequences with at least three values out of six and counted those with two or fewer as poor binders.

CDR-L1,CDR-L2,CDR-L3,"replicates, log10 nM",signal with controls
KLVQSNLYESRNTNSVA,NASQRLS,QQYHRLPLS,0.07 / -0.12 / -0.17 / -0.12 / -0.17 / 0.04,0 of 18
KLMQSSLYDSRNKNSVA,QASTRMW,QQYHRLPLS,0.52 / 0.02 / 0.27 / 0.24 / 0.04 / 0.42,1 of 18 (2.56)
WLSMSVMLESRNKNSVA,SASTREL,QQYHRLPLS,0.18 / 0.03 / -0.24 / -0.12 / -0.15 / -0.09,0 of 18
KLSQSVLYEDRNWNNVA,AASKRES,QAYHRLPLS,0.41 / 0.32 / 0.43 / 0.23 / 0.49 / 0.48,4 of 18 (2.84)
KLSQSVWYLERNKNSVA,NASYRES,QQYHRLPLS,0.32 / 0.41 / 0.24 / 0.23 / 0.10 / 0.38,1 of 18 (3.27)
KLEQSEWYESRMCNSVA,NASVRES,QQYHRLPLS,0.44 / 0.14 / 0.28 / 0.43 / 0.40 / 0.47,1 of 18 (2.97)
KVSQSAWMEERNFNSVA,NASTRES,QQYHRLPLS,0.13 / -0.11 / -0.05 / -0.09 / -0.17 / 0.08,3 of 18 (3.77)
KIFQSWLMEQRNVNSVA,HASQRLD,QQYHRLPLS,0.62 / 0.18 / 0.24 / 0.48 / 0.49 / 0.43,1 of 18 (2.38)
KVSQSEPYEERNKNNVA,NASTRMS,QQYHRLPLS,0.26 / 0.05 / 0.07 / -0.12 / -0.04 / 0.00,1 of 18 (1.72)
KSQQSVPYESRMKNSVA,NASLRCS,QQYHRLPLS,0.94 / 1.02 / 0.66 / 0.51 / 0.74 / 0.86,2 of 18 (2.68)
KVPQSMLYESRNKNNVA,AASDRES,QQYHRLPLS,0.08 / 0.05 / -0.20 / -0.24 / -0.03 / 0.18,2 of 18 (3.04)
KLSGSMLYQSRNKNNVA,EASQREQ,QQYHRLPLS,0.01 / -0.17 / -0.39 / -0.44 / -0.09 / 0.08,0 of 18
KLDPSDLGEERNKNSVA,QASQREI,QQYHRLPLS,0.47 / -0.01 / -0.32 / -0.31 / -0.27 / -0.60,0 of 18
KLSQSDGYEQRNSNSVA,HASTRED,QQYHRLPLS,-0.52 / -0.05 / -0.39 / -0.36 / -0.15 / -0.08,1 of 18 (1.93)
KLSWSVLLMSRAKNSVA,NASTRES,QQYHRLPLS,-0.25 / -0.50 / -0.36 / -0.19 / -0.27 / -0.21,0 of 18
KLQQSELYEERNSNSVA,HASLRES,QQYHRLPLS,0.03 / -0.19 / -0.25 / -0.18 / -0.30 / 0.03,0 of 18
KLSQDALYESRNKNSVA,NASTREV,QQYHRLPLS,0.27 / -0.05 / -0.18 / -0.14 / 0.03 / 0.11,0 of 18
KLQQMWLYGSRNANSVA,NASQREE,QQYHRLPLS,0.18 / 0.29 / 0.00 / -0.14 / 0.31 / 0.94,0 of 18
KVSQMQPYEERNKNNVA,QASTRMS,QQYHRLPLS,-0.42 / -0.29 / -0.29 / -0.58 / -0.32 / -0.28,0 of 18
KMSQLQLYEWRNKNSVA,NASYRES,QQYHRLPLS,0.80 / 0.81 / 0.61 / 0.41 / 0.46 / 0.72,2 of 18 (2.45)
KLSQKWLYESRNKNNVA,NASWREQ,QQYHRLPLS,-0.24 / -0.33 / -0.47 / -0.48 / -0.46 / -0.35,1 of 18 (3.28)
KLQQWVLYEGRNKNSVA,SASTRSD,QQYHRLPLS,0.10 / -0.09 / -0.01 / -0.10 / -0.21 / 0.01,1 of 18 (1.82)
KLSCSQEYWSRNTNSVA,GASTRES,QQYHRLPLS,-0.14 / -0.24 / -0.23 / -0.28 / -0.25 / -0.11,1 of 18 (3.32)
KLMEQALYESRNKNSVA,QASTREV,QQYHRLPLS,-0.17 / -0.32 / -0.25 / -0.30 / -0.49 / -0.17,0 of 18
KLEFLHLYESRNKNSVA,QASTREM,QQYHRLPLS,0.41 / 0.31 / 0.17 / 0.36 / 0.21 / 0.50,0 of 18
KLQISRGYEQRNKNSVA,EASTRCD,QQYHRLPLS,0.02 / -0.14 / -0.24 / -0.37 / 0.18 / 0.07,1 of 18 (2.44)
KFSQSWLYESRVKNNVA,NASQRES,QCYHRLPLS,1.38 / 1.21 / 0.66 / 1.13 / 0.72 / 0.90,0 of 18
KLQQADLYESRNANSVA,QASERES,QCYHRLPLS,0.64 / 0.33 / 0.66 / 0.75 / 0.71 / 0.61,0 of 18
KVSQGVWYESRNKNSVA,WASTRES,QQYHRLPLS,1.10 / 1.00 / 1.06 / 0.65 / 0.98 / 1.05,2 of 18 (2.89)
KLSQSMEYESRNKNSVA,NASTREE,GQYHRLPLT,0.85 / 0.99 / 1.62 / 0.44 / nd / 1.57,0 of 18
KVSQSMDYESRNVMSVA,NASTRLK,QQYHRLPLS,2.34 / 1.87 / 1.40 / 1.49 / 1.93 / 1.82,1 of 18 (1.96)
KWSCSQLYDSQNKNSVA,NASTREM,QQYHRLPLS,0.52 / 0.33 / 0.31 / 0.31 / 0.38 / 0.44,2 of 18 (2.83)
KLSQADWYGSRNKNSVA,EASLRES,QQYHRLPLS,0.78 / 0.87 / 0.68 / 0.55 / 0.50 / 0.69,0 of 18
KVSMSVQYEARNINSVA,EASTRED,QQYHRLPLS,0.14 / 0.03 / 0.04 / -0.10 / 0.06 / 0.26,0 of 18
KSAASELLESRNKNSVA,SASTREV,QQYHRLPLS,-0.05 / -0.17 / -0.15 / -0.08 / 0.02 / -0.07,1 of 18 (2.70)
KLQNSFLYESRMKNSVA,EASQREM,QQYHRLPLS,0.57 / 0.25 / 0.04 / -0.01 / 0.35 / 0.23,0 of 18
KVSNSVDGEDRNKNAVA,KASTRES,QQYHRLPLS,-0.07 / -0.30 / -0.64 / -0.51 / -0.23 / -0.12,2 of 18 (2.19)
KSAYSELYESANKNSVA,SANTRSS,QQYHRLPLS,-0.07 / -0.24 / 0.12 / -0.03 / -0.04 / 0.27,1 of 18 (2.39)
KLSQQMEYESRNHNNVA,AASTRED,QQYHRLPLS,0.56 / -0.05 / 0.10 / -0.07 / -0.13 / 0.36,0 of 18
KLSQEVLMEQRNHNSVA,SANTREE,QQYHRLPLS,-0.37 / -0.42 / -0.20 / -0.53 / -0.40 / -0.33,0 of 18
KVMQSVLYESRNKNNVA,NGSTREL,QQYHRLPLS,-0.21 / -0.17 / -0.26 / 0.12 / -0.39 / 0.01,0 of 18
KYQQSEPYESRNKNSVA,NASTRET,QQYHRLPLS,-0.22 / -0.27 / -0.16 / -0.65 / -0.29 / -0.03,2 of 18 (3.15)
KFEQGFLYEERNKNSVA,HASQRES,QQYHRLPLS,-0.17 / -0.56 / -0.58 / -0.56 / -0.61 / -0.53,0 of 18

Extract of 5 entries:

CDR-L1,CDR-L2,CDR-L3,"replicates, log10 nM",signal with controls
KYQQSEPYESRNKNSVA,NASTRET,QQYHRLPLS,-0.22 / -0.27 / -0.16 / -0.65 / -0.29 / -0.03,2 of 18 (3.15)
WLSMSVMLESRNKNSVA,SASTREL,QQYHRLPLS,0.18 / 0.03 / -0.24 / -0.12 / -0.15 / -0.09,0 of 18
KLQQSELYEERNSNSVA,HASLRES,QQYHRLPLS,0.03 / -0.19 / -0.25 / -0.18 / -0.30 / 0.03,0 of 18
KLSQQMEYESRNHNNVA,AASTRED,QQYHRLPLS,0.56 / -0.05 / 0.10 / -0.07 / -0.13 / 0.36,0 of 18
KFSQSWLYESRVKNNVA,NASQRES,QCYHRLPLS,1.38 / 1.21 / 0.66 / 1.13 / 0.72 / 0.90,0 of 18

The range of this assay differs from that of the first round, and the authors advise against merging the two.
The parent sequence was in this pool as ten entries: three were never detected, three once, and four in most replicates, with averages from 0.34 to 2.37.
As a blank, each scFv also met three strains without target: over all light chain designs, 4% of these pairings were detected, typically at 2.64 and seldom below 1.59. The control count says in how many pairings with the empty strains this scFv gave a signal, with their mean in brackets.